Measured values as given in PMC8833187 (Proceedings of the National Academy of Sciences of the …, 2022).

Tests used:
[1] = molecular target: CaM/4Ca^2+ (A17C–R1, A128C–R1) (Homo sapiens, UniProt P0DP23, A129C/S18C); format: binding; conditions: DEER EPR
CaM/4Ca^2+ = CaM/4Ca^2+ (Homo sapiens, UniProt P0DP23); format: binding; conditions: ssNMR, optimized value (5–95% confidence limits)

KRRWKKNFIAVSAANRFKKISSSGAL [M13]
kAC ([1]; state A to final complex C, only lower limit can be determined): ≥4 × 10^3 ^* s^−1
kA*B ([1]; state A* to intermediate B, optimized value (5–95% confidence limits)): 660 (570–760) s^−1
kBC ([1]; state B to final complex C, optimized value (5–95% confidence limits)): 155 (110–215) s^−1
kAC (CaM/4Ca^2+; state A to final complex C): 1.7 × 10^3 (1.2 × 10^3–2.3 × 10^3) s^−1
kA*B (CaM/4Ca^2+; state A* to intermediate B): 410 (310–540) s^−1
kBC (CaM/4Ca^2+; state B to final complex C): 55 (37–81) s^−1
